In ChEMBL document CHEMBL3112399, “Discovery of pyrazolo[3,4-d]pyrimidine derivatives as GPR119 agonists” (Bioorg Med Chem Lett, 2014):

Test system: HIT-T15
Test: Agonist activity at GPR119 receptor in hamster HIT-T15 cells assessed as intracellular cAMP level relative to AR-231,453
Format: cell-based
Conditions: Cricetinae

## CC(C)(C)OC(=O)N1CCC(n2ncc3c(Oc4ccccc4C#N)ncnc32)CC1
  Emax: 61%
